How the values were obtained:
MRSA ATCC 33591 = experiment: Antimicrobial-resistance test; type: cell-based, methicillin-resistant Staphylococcus aureus; conditions: 1/2 × MIC
[1] = test system: K. pneumoniae ATCC 700603; experiment: Antimicrobial-resistance test; type: cell-based, Klebsiella pneumoniae; conditions: 1/2 × MIC

CO/N=C(\C(=O)N[C@@H]1C(=O)N2C(C(=O)O)=C(COC(C)=O)CS[C@H]12)c1csc(N)n1 [Cefotaxime]
increase in MIC after continuous 14 passages exposure (MRSA ATCC 33591): up to 8 fold | increase in MIC after continuous 14 passages exposure [1]: up to 256 fold
